Measurements published in patent US20130045947A1, “PLA2ACTIVITY AS A MARKER FOR OVARIAN AND OTHER GYNECOLOGIC CANCERS” (INDIANA UNIVERSITY RESEARCH AND TECHNOLOGY CORPORATION, priority 2010, published 2013).

What was measured:
PLA2 [1] = assay: PLA2 activity in frozen tissue sections (DBPC, in situ); type: biochemical, human; details: MAFP 40 μM, TAPC 250 μM, FIG. 7B
PLA2 [2] = assay: DBPC-based PLA2 activity assay in human EOC ascites; type: biochemical
SKOV3 cells [3] = assay: MTT proliferation assay, ascites-stimulated SKOV3 cells; type: cell-based, human; details: S1-stimulated; 100 μM MAFP
SKOV3 cells [4] = assay: Cell migration assay, SKOV3 cells; type: cell-based, human; details: inhibitor in lower chamber; two different S1 fractions; FIG. 10A
EOC ascites = assay: Ex vivo lipid generation in S1 and S4 ascites fractions (LC-MS); type: biochemical, human; details: for 16-0 LPC / 16:0 LPA / 18:0 LPA / 18:0 LPC / 18:1 LPA / 18:1 LPC / 18:2 LPA / 18:2 LPC / 20:4 LPA / 20:4 LPC / 22:6 LPA / 22:6 LPC: 48 hr + inhibitor 100 μM; for AA / total LPA / total LPC: 48 hrs
SKOV3 cells [5] = assay: Migration of SKOV3 cells to RAW 264.7 macrophage CM; type: cell-based, human; details: MAFP 20 μM added to CM
SKOV3-Luc cells = assay: Mouse xenograft model of EOC, MAFP treatment
[6] = A5 S1, 37° C., inhibitor 100 μM
[7] = A5 S4, 37° C., inhibitor 100 μM
[8] = A6 S1, 37° C., inhibitor 100 μM
[9] = A6 S4, 37° C., inhibitor 100 μM
[10] = A7 S1, 37° C., inhibitor 100 μM
[11] = A7 S4, 37° C., inhibitor 100 μM

Compound: CCCCC/C=C\C/C=C\C/C=C\C/C=C\CCCCOP(=O)(F)OC (centres unmarked)
- sensitivity of tumor PLA2 activity to inhibitor (PLA2 [1]): sensitive
- blocking PLA2 activity and migration/invasion-inducing activity of ascites S1 and S3 fractions, comparison (PLA2 [2]; MAFP compared with BEL): more effective than BEL
- MAFP-sensitive (cPLA2- and iPLA2-like) share of natural PLA2 activity (PLA2 [2]; cell-free human EOC ascites, 10 specimens, MAFP 10 μM): > 98%
- sensitivity of exosome-associated PLA2 activity to inhibitor (PLA2 [2]; exosomes isolated from human ascites (ExoQuick)): proved sensitive
- proliferation of SKOV3 cells reduced by (SKOV3 cells [3]): 28.8±9.98%
- effect on migration of SKOV3 cells induced by S1 fractions (SKOV3 cells [4]): dose-dependently reduced
- 16-0 LPC (EOC ascites; A5 S1, 37° C.): 39.3 µM
- 16:0 LPA (EOC ascites; A5 S1, 37° C.): 3.88 µM
- 18:0 LPA (EOC ascites; A5 S1, 37° C.): 0.61 µM
- 18:0 LPC (EOC ascites; A5 S1, 37° C.): 9.13 µM
- 18:1 LPA (EOC ascites; A5 S1, 37° C.): 1.72 µM
- 18:1 LPC (EOC ascites; A5 S1, 37° C.): 7.90 µM
- 18:2 LPA (EOC ascites; A5 S1, 37° C.): 3.46 µM
- 18:2 LPC (EOC ascites; A5 S1, 37° C.): 5.82 µM
- 20:4 LPA (EOC ascites; A5 S1, 37° C.): 3.83 µM
- 20:4 LPC (EOC ascites; A5 S1, 37° C.): 2.13 µM
- 22:6 LPA (EOC ascites; A5 S1, 37° C.): 0.63 µM
- 22:6 LPC (EOC ascites; A5 S1, 37° C.): 0.89 µM
- AA (EOC ascites; [6]): 3.1 µM
- total LPA (EOC ascites; [6]): 14.2 µM
- total LPC (EOC ascites; [6]): 65.8 µM
- 16-0 LPC (EOC ascites; A5 S4, 37° C.): 38.2 µM
- 16:0 LPA (EOC ascites; A5 S4, 37° C.): 3.95 µM
- 18:0 LPA (EOC ascites; A5 S4, 37° C.): 0.61 µM
- 18:0 LPC (EOC ascites; A5 S4, 37° C.): 8.85 µM
- 18:1 LPA (EOC ascites; A5 S4, 37° C.): 1.79 µM
- 18:1 LPC (EOC ascites; A5 S4, 37° C.): 7.91 µM
- 18:2 LPA (EOC ascites; A5 S4, 37° C.): 3.49 µM
- 18:2 LPC (EOC ascites; A5 S4, 37° C.): 5.96 µM
- 20:4 LPA (EOC ascites; A5 S4, 37° C.): 3.57 µM
- 20:4 LPC (EOC ascites; A5 S4, 37° C.): 2.28 µM
- 22:6 LPA (EOC ascites; A5 S4, 37° C.): 0.61 µM
- 22:6 LPC (EOC ascites; A5 S4, 37° C.): 0.90 µM
- total LPA (EOC ascites; [7]): 14.2 µM
- total LPC (EOC ascites; [7]): 64.6 µM
- 16-0 LPC (EOC ascites; A6 S1, 37° C.): 33.7 µM
- 16:0 LPA (EOC ascites; A6 S1, 37° C.): 1.70 µM
- 18:0 LPA (EOC ascites; A6 S1, 37° C.): 0.31 µM
- 18:0 LPC (EOC ascites; A6 S1, 37° C.): 7.69 µM
- 18:1 LPA (EOC ascites; A6 S1, 37° C.): 0.66 µM
- 18:1 LPC (EOC ascites; A6 S1, 37° C.): 6.15 µM
- 18:2 LPA (EOC ascites; A6 S1, 37° C.): 0.83 µM
- 18:2 LPC (EOC ascites; A6 S1, 37° C.): 3.17 µM
- 20:4 LPA (EOC ascites; A6 S1, 37° C.): 2.94 µM
- 20:4 LPC (EOC ascites; A6 S1, 37° C.): 3.27 µM
- 22:6 LPA (EOC ascites; A6 S1, 37° C.): 0.34 µM
- 22:6 LPC (EOC ascites; A6 S1, 37° C.): 0.84 µM
- AA (EOC ascites; [8]): 5.4 µM
- total LPA (EOC ascites; [8]): 6.9 µM
- total LPC (EOC ascites; [8]): 55.3 µM
- 16-0 LPC (EOC ascites; A6 S4, 37° C.): 33.7 µM
- 18:0 LPC (EOC ascites; A6 S4, 37° C.): 7.52 µM
- 18:1 LPC (EOC ascites; A6 S4, 37° C.): 6.12 µM
- 18:2 LPC (EOC ascites; A6 S4, 37° C.): 3.23 µM
- 20:4 LPC (EOC ascites; A6 S4, 37° C.): 3.18 µM
- 22:6 LPC (EOC ascites; A6 S4, 37° C.): 0.73 µM
- total LPA (EOC ascites; [9]): 12.3 µM
- total LPC (EOC ascites; [9]): 54.8 µM
- 16-0 LPC (EOC ascites; A7 S1, 37° C.): 26.1 µM
- 16:0 LPA (EOC ascites; A7 S1, 37° C.): 2.00 µM
- 18:0 LPA (EOC ascites; A7 S1, 37° C.): 0.48 µM
- 18:0 LPC (EOC ascites; A7 S1, 37° C.): 6.52 µM
- 18:1 LPA (EOC ascites; A7 S1, 37° C.): 1.31 µM
- 18:1 LPC (EOC ascites; A7 S1, 37° C.): 5.89 µM
- 18:2 LPA (EOC ascites; A7 S1, 37° C.): 2.40 µM
- 18:2 LPC (EOC ascites; A7 S1, 37° C.): 4.19 µM
- 20:4 LPA (EOC ascites; A7 S1, 37° C.): 5.06 µM
- 20:4 LPC (EOC ascites; A7 S1, 37° C.): 2.60 µM
- 22:6 LPA (EOC ascites; A7 S1, 37° C.): 0.61 µM
- 22:6 LPC (EOC ascites; A7 S1, 37° C.): 0.57 µM
- AA (EOC ascites; [10]): 4.3 µM
- total LPA (EOC ascites; [10]): 12.0 µM
- total LPC (EOC ascites; [10]): 46.2 µM
- 16-0 LPC (EOC ascites; A7 S4, 37° C.): 27.8 µM
- 16:0 LPA (EOC ascites; A7 S4, 37° C.): 2.95 µM
- 18:0 LPA (EOC ascites; A7 S4, 37° C.): 0.66 µM
- 18:0 LPC (EOC ascites; A7 S4, 37° C.): 6.98 µM
- 18:1 LPA (EOC ascites; A7 S4, 37° C.): 1.83 µM
- 18:1 LPC (EOC ascites; A7 S4, 37° C.): 6.30 µM
- 18:2 LPA (EOC ascites; A7 S4, 37° C.): 3.24 µM
- 18:2 LPC (EOC ascites; A7 S4, 37° C.): 4.62 µM
- 20:4 LPA (EOC ascites; A7 S4, 37° C.): 6.57 µM
- 20:4 LPC (EOC ascites; A7 S4, 37° C.): 2.78 µM
- 22:6 LPA (EOC ascites; A7 S4, 37° C.): 0.72 µM
- 22:6 LPC (EOC ascites; A7 S4, 37° C.): 0.60 µM
- total LPA (EOC ascites; [11]): 16.1 µM
- total LPC (EOC ascites; [11]): 49.4 µM
- inhibition of lipid generation (EOC ascites; S1 ascites fractions, 37° C., 48 hr, inhibitor 100 μM): 74-80%
- block of the decrease in LPC (EOC ascites; ascites incubated ex vivo): effectively block
- block of the increase in LPA (EOC ascites; ascites incubated ex vivo): effectively block
- block of the increase in arachidonic acid (EOC ascites; ascites incubated ex vivo): but not
- migration of SKOV3 cells to CM with inhibitor added (SKOV3 cells [5]): abrogated migration
- tumor numbers and sizes (SKOV3-Luc cells; MAFP-treated versus vehicle-treated group, FIG. 11A): significantly reduced
- tumor formation (SKOV3-Luc cells; NOD/SCID mice, SKOV3 i.p., MAFP i.p. from day 10, sacrifice 38-40 days): decreased tumor formation
- inhibition of EOC metastasis (SKOV3-Luc cells; mouse xenograft models): highly effective
